Data published in patent US20070014736A1, “Methods of delivering corticotroph-derived glycoprotein hormone” (priority 2005, published 2007).

How the values were obtained:
TSHR = test: Binding of 125I-CGH and 125I-TSH to BHK cells expressing the TSHR; parameters: species or system murine or human
Experimental: (§1) Radiolabeled rhCGH and human pituitary-derived TSH (BiosPacific, Emeryville, Calif.) were prepared with ^125I-Bolton Hunter Reagent (Amersham Pharmacia Biotech, Buckinghamshire, UK) according to the manufacturer's instructions. Fifty μg of protein was radiolabeled to specific activities of 9000-14,000 cpm/ng with 89-97% of the radioactivity precipitating with 10% TCA. Bioactivity of each preparation of ^125I-CGH and ^125I-TSH was measured using BHK cells transfected with a CRE-luciferase reporter construct and the human TSHR. […] BHK cells expressing murine or human TSHRs were cultured in Dulbecco's Modified Eagle's Medium [DMEM (high glucose)] containing 5% fetal bovine serum, 1% Glutamax, 1% sodium pyruvate, 250 nM methotrexate, and Geneticin ( 1/100). Cells were seeded on day 0 at a density of 4,000 cells/cm^2 and were used on days 4-5 by which time the cell number had increased to about 1×10^5 cells/cm^2. Plates of cells were placed on ice and washed twice with 1.0-2.0 ml of ice-cold PBS. The washes were discarded and each well was incubated with the indicated concentration of ^125I-CGH or ^125I-TSH in 0.1 mL/cm^2 of Medium B [DMEM (no bicarbonate), 0.02M Hepes, pH 7.4, 1.0 mg BSA/ml]. Specific binding was determined in the presence (nonspecific binding) and absence (total binding) of unlabeled rhCGH (25.0 μg/ml) or TSH (10 μg/ml). Binding reactions were terminated by removing the binding medium and the cell monolayers were washed three times with 1.0-2.0 ml of ice-cold PBS containing 1.0 mg/ml BSA and twice with 1.0-2.0 ml of ice cold albumin-free PBS. Cells were solubilized in 1.0 ml of 1.0N NaOH for 10 min at room temperature and cell-associated radioactivity was determined in a gamma counter. The measured radioactivity was normalized to cell number that was determined on plates of cells cultured in parallel. Binding data were analyzed by non-linear regression using Prizm 3.0 (GraphPad Software, San Diego, Calif.).

[1] = tested on: parental BHK cells lacking the TSHR; test: Binding of radioligands to parental BHK cells; settings: data not shown
Experimental: as §1, with “Cells were seeded on day 0 at a density of 4,000 cells/cm^2 and were used on days 4-5 by which time the cell number had increased to about 1×10^5 cells/cm^2. Plates of cells were placed on ice and washed twice with 1.0-2.0 ml of ice-cold PBS. The washes were discarded and each well was incubated with the indicated concentration of ^125I-CGH or ^125I-TSH in 0.1 mL/cm^2 of Medium B [DMEM (no bicarbonate), 0.02M Hepes, pH 7.4, 1.0 mg BSA/ml].” left out, “Binding reactions were terminated by removing the binding medium and the cell monolayers were washed three times with 1.0-2.0 ml of ice-cold PBS containing 1.0 mg/ml BSA and twice with 1.0-2.0 ml of ice cold albumin-free PBS.” left out, “Calif.). […]” for “Calif.).”

human TSHR = biological target: T1, human TSHR (Homo sapiens, UniProt P16473); test: Bioactivity in BHK cells with CRE-luciferase reporter and human TSHR; assay type: cell-based; settings: CRE-luciferase reporter
T1 construct: expressed in transfected cells; host or cells: BHK cells

rhTSH: unlabeled recombinant human thyroid-stimulating hormone used as competitor [reference compound]
reduction of the amount of 125I-CGH bound by unlabeled competitor (TSHR; increasing amounts of unlabeled protein): neither unlabeled rhTSH (FIG. 1C) nor unlabeled rhGPHA2 nor rhGPHB5 (data not shown) reduced the amount of ^125I-CGH bound

^125I-TSH: human pituitary-derived TSH radiolabeled with 125I-Bolton Hunter Reagent [reference compound]
binding to parental BHK cells lacking the TSHR [1]: Little or no binding | bioactivity compared to unlabeled counterpart (human TSHR): no significant differences | Bmax (TSHR; single site model): 178 fmol/10^6 cells | sites per cell (TSHR; single site model): about 107,000 sites per cell
